Legend:
3A10A6A2 = assay: Competition ELISA, cross reactivity with methamphetamine analogs, antibody 3A10A6A2; format: binding, murine; conditions: Met1 = 100
6H5D1C4 = assay: Competition ELISA, cross reactivity with methamphetamine analogs, antibody 6H5D1C4; format: binding, murine; conditions: Met1 = 100

**Q.** With NCCc1ccc(O)c(O)c1 [3-hydroxytyramine] as the compound, how does the “% inhibition as compared with the antigen Met1” value (shortened to “% inhibition”) (3A10A6A2) read?
**A.** The value was 2%.

**Q.** What about the “% inhibition” value (6H5D1C4) of the same compound?
**A.** Its value is 1%.

**Q.** CNC[C@H](O)c1ccc(O)c(O)c1 [Epinephrine] was tested. Which “% inhibition” value (3A10A6A2) did it give?
**A.** Its value is 3%.

**Q.** What about the “% inhibition” value (6H5D1C4) of the same compound?
**A.** Its value is 1%.
